## Antibody variant affinities, Ab-14 heavy chain, assay B

The measurements come from Li et al. 2023 (doi:10.1038/s41467-023-39022-2) through the FLAb antibody collection.

Target peptide (SARS-CoV-2 spike, HR2 region): PDVDLGDISGINAS

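Phage display of a naive human antibody library on the peptide gave the parent. These sequences belong to a second round, designed from the earlier measurements on random variants of the parent. Group labels follow the data file (Ctrl: baseline library sampled from a position-specific scoring matrix, with some repeated check sequences; En: ensemble of fine-tuned language models; GP: Gaussian process model; GPLM: also part of the Gaussian process libraries; HC: hill climbing; Gen: genetic algorithm; Gibbs: Gibbs sampling; a sequence that several methods proposed may carry one label only). In AlphaSeq, yeast of one mating type display the scFv and yeast of the other type display the target. Pairs that bind mate more often; barcode pairs of the diploids are counted by sequencing. Each replicate has its own calibration line, from reference interactions of the BCL2 family. Each pool was mated in six replicate cultures.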

The variants keep the light chain, the linker and the frameworks of Ab-14 (scFv order VH, three GGGGS repeats, VL).
VH: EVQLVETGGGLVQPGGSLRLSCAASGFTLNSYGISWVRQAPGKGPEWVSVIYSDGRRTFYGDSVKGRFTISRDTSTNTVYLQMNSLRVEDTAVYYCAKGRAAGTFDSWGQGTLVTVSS
VL: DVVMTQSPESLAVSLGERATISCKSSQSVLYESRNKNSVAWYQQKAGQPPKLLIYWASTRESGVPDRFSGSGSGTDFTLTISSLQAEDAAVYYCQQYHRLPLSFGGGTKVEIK

Variants are written as CDR1, CDR2 and CDR3 of the heavy chain (limits as in the source). Parent: GFTLNSYGIS, VIYSDGRRTFYGDSVK, GRAAGTFDS. Values are log10 of the apparent Kd in nM; lower means stronger binding. Averages over replicates are reported, and they cover detected replicates only. "nd" marks a missing value. The strain was present, yet no cells mated with the target were sequenced in any replicate, which points to weak or no binding. Entries are sorted by rising average, undetected variants last. Of ten entries with the parent sequence, four were seen in most replicates (averages 0.34 to 2.37), three in one and three in none, so single entries are noisy.

-1.04 (5 of 6 replicates): GFDLNEYGIS | VIYADGSRTAYADSVK | GNVAGTFDV [En_Gen].
-0.69 (6 of 6 replicates): GFDLNEYGIS | VIYADGVRKAYADSVK | GNEAGTFDV [En_Gen].
-0.66 (6 of 6 replicates): GFDLSEYGIS | VIYADGRRTFYSDSVK | GEVAGTFDV [En_HC].
-0.66 (6 of 6 replicates): GFDLNEYGIS | VIYADGRRTFYADSVK | GEAAGTFDT [En_HC].
-0.64 (6 of 6 replicates): GFDLNEYGIS | VIYADGMRKAYADDVK | GNNAGTFDV [En_Gen].
-0.55 (6 of 6 replicates): GFDLDEYGIS | VIYADGRRTAYTDSVK | GNEAGTFDV [En_Gen].
-0.50 (6 of 6 replicates): GFDLDEYGIS | VIYADGRRTFYADSVK | GNNAGTFDS [En_HC].
-0.41 (6 of 6 replicates): GFDLNEYGIS | VIYADGRRTSYIDSVK | GNQAGTFDS [En_HC].
-0.35 (1 of 6 replicates): GNTINSYGIS | VIYSDGRRTFYGDSVK | GRNAGTFDS [Ctrl].
-0.35 (6 of 6 replicates): GFNLNEYGIS | VIYADGRRTFYADSVK | GTQAGTFDM [En_HC].
-0.31 (6 of 6 replicates): GFDLNEYGIS | VIYADGRRTFYADSVK | GKVAGTFNV [En_HC].
-0.30 (6 of 6 replicates): GFDLNSYGIS | VIYSDGRRTFYDDNVK | GRTAGTFDS [GP_Gibbs].
-0.21 (6 of 6 replicates): GFDLNEYGIS | VIYADGRRTSYIDSVK | GNVAGTFDS [En_HC].
-0.11 (6 of 6 replicates): GFDLNEYGIS | VIYADGQRTFYADSVK | GQNAGTFDV [En_Gen].
0.09 (6 of 6 replicates): GFWLNDYGIS | VIYADGRRTFYGDSVK | GKAAGTFDS [GP_HC].
0.10 (6 of 6 replicates): GFELNSYGIS | VIYADGRRTFYGDSVK | GAAAGTFDS [GP_Gen].
0.13 (6 of 6 replicates): GFTLNSYGIS | VIYSDGKRTFYSDSVK | GQVAGTFDA [GPLM_Gibbs].
0.22 (6 of 6 replicates): GFDLNEYGIS | VIYADGMRTAYVDSVK | GSNAGTFDV [En_Gen].
0.56 (6 of 6 replicates): GFSLNSYGIS | VIYSDGRRTFYGDSVK | GVQAGTFDS [GP_Gen].
0.57 (6 of 6 replicates): GFNLNSYGIS | VIYSDGRRTFYADSVK | GRMAGTFDT [GP_Gen].
0.58 (6 of 6 replicates): GFSLNSYGIS | VIYSDGRRTFYGDDVK | GEAAGTFDN [GP_Gibbs].
0.67 (6 of 6 replicates): KFDLNSYGIS | VIYSDGRRTFYDDSVK | GRQAGTFDS [GP_Gibbs].
0.75 (1 of 6 replicates): GFTLNEYGIQ | VIYSDGERTAYGDDVK | GRAAGTFDS [Ctrl].
0.85 (5 of 6 replicates): GFDLNSYGIS | VIYSDGRRTFYSDMVK | GEAAGTFDS [GP_Gen].
0.90 (6 of 6 replicates): GFSLNSYGIS | VIYSDGRRTFYGDSVK | GRTAGTFDA [GPLM_Gen].
1.70 (6 of 6 replicates): GFDLNSYGIS | VIYSDGRRTFYGDSVK | GRMAGTFES [GP_HC].
2.30 (5 of 6 replicates): GFTLDSYGIS | VIYSDGRRTFYGDSVK | GRQAGTFES [GP_HC].
nd (0 of 6 replicates): GFTLNSYGIS | VIYSDGRRTFYSDSVK | GRAGGTFDQ [GPLM_HC].
nd (0 of 6 replicates): GFDLGEYGIS | VIYADGVRQSYADKVK | GANGVFSLV [En_Gibbs].
nd (0 of 6 replicates): GFTLWSYGIS | VNYSDGRRTFYGDSVK | GRAAGTFDA [Ctrl].
nd (0 of 6 replicates): GFTLNDYGIS | VIYSDGRRTFYIDSVK | GRTAGTFIS [GP_HC].
nd (0 of 6 replicates): GRNLDEYGIS | VIYADGQRTSYRDNVK | GANSGHLDM [En_Gibbs].
nd (0 of 6 replicates): GFDVDEQGIS | VIYADGRRSQYANSVK | GAIGGMFDM [En_Gibbs].
nd (0 of 6 replicates): GFDINEYGIS | VIYADGMRKAYVQNVK | GENPSSVQI [En_Gibbs].
nd (0 of 6 replicates): GFVFDEYGIS | VIYADGIRQFYQDKVK | GEVTGMFDI [En_Gibbs].
nd (0 of 6 replicates): GFQLDEYGIS | VIYADGVRSSYVDDVK | GEITGAFSV [En_Gibbs].

The 4 strongest on average among those seen in every replicate, once more:

{"CDR-H1": "GFDLNEYGIS", "CDR-H2": "VIYADGVRKAYADSVK", "CDR-H3": "GNEAGTFDV", "group": "En_Gen", "mean, log10 nM": "-0.69", "detected": "6/6"}
{"CDR-H1": "GFDLSEYGIS", "CDR-H2": "VIYADGRRTFYSDSVK", "CDR-H3": "GEVAGTFDV", "group": "En_HC", "mean, log10 nM": "-0.66", "detected": "6/6"}
{"CDR-H1": "GFDLNEYGIS", "CDR-H2": "VIYADGRRTFYADSVK", "CDR-H3": "GEAAGTFDT", "group": "En_HC", "mean, log10 nM": "-0.66", "detected": "6/6"}
{"CDR-H1": "GFDLNEYGIS", "CDR-H2": "VIYADGMRKAYADDVK", "CDR-H3": "GNNAGTFDV", "group": "En_Gen", "mean, log10 nM": "-0.64", "detected": "6/6"}

The range of this assay differs from that of the first round, and the authors advise against merging the two. Background: pairings of all heavy chain designs with three empty control strains gave a value in 1% of cases (median 2.08, 5th percentile 0.84). Values in that range, when seen in few replicates, are hard to tell from nonspecific mating. In the paper, a design with two or fewer of six values counts as a poor binder.